{
  "source": "patent US10501644B2",
  "about": "“Reactive surface coating having chemical decontamination and biocidal properties” (dated 2019)",
  "test": "Live agent testing of HD with hydrogen peroxide solutions",
  "settings": "solution",
  "data": [
    {"smiles": "OO", "values": [
      {"measurement": "hydrogen peroxide concentration needed to be effective alone against HD", "result": 5, "unit": "%"}
    ]}
  ]
}
